Experimental melting point values from OPERA 2.9

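These are experimental values that the OPERA curators gathered from public databases to train and test their QSAR models. A listed value is a point estimate from one report or more. Method and conditions are not stated for these values. The measured form (salt, isomer or mixture) is not always the one drawn. Unmarked limits or estimates from the upstream databases cannot be ruled out.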

The melting point is given in degrees Celsius.
The databases behind each value are named after "via".

SMILES,melting point (°C),via
Nc1ccc(Oc2ccc(F)cc2)nc1,48,OCHEM
Cn1c(-c2ccc(Cl)cc2)n[nH]c1=S,114,OCHEM
Nc1ccc2sc(N)nc2n1,194,OCHEM
O=S1(=O)C=CC(Br)C1 (stereo not drawn),54.5,OCHEM
O=C=NCc1cccc(N2C(=O)N(c3cccc(CN=C=O)c3)C2=O)c1,155.8,eChemPortal
CC(=O)CC(=O)Nc1cccc(C)c1,58,OCHEM
Nc1nc(Cc2ccccc2)cs1,90,OCHEM
CCCCOC(=O)c1ccc(C(=O)OCCCC)c(C(=O)OCCCC)c1,-54,eChemPortal
CC1CCS(=O)(=O)C1 (stereo not drawn),-1.55,"OCHEM, eChemPortal"
O=C(O)CCCNc1ccccc1[N+](=O)[O-],117,OCHEM
Cc1csc(Nc2ccccc2)n1,75,OCHEM
COc1cc(C[C@H]2COC(=O)[C@@H]2Cc2ccc(O)c(OC)c2)ccc1O,119,PubChem
COc1cc2c(cc1C=O)OC(C)C2 (stereo not drawn),79,OCHEM
COc1ccc(C(=O)Oc2ccc(C=O)cc2OC)cc1,96.5,OCHEM
O=C(O)c1ccc2[nH]c(=O)c(=O)[nH]c2c1,251,OCHEM
Cc1ccc(C(C)(C)CC(=O)O)cc1,53.5,OCHEM
Nc1nc(SCc2ccccc2)ns1,105,OCHEM
N#CCC(=O)NCCN1CCOCC1,71.5,OCHEM
Cc1c(Nc2nc(Cl)nc(Nc3cccc(S(=O)(=O)[O-])c3)n2)c(C)c(S(=O)(=O)[O-])c(C)c1Nc1cc(S(=O)(=O)[O-])c(N)c2c1C(=O)c1ccccc1C2=O.[Na+].[Na+].[Na+],330,eChemPortal
CNC(=O)c1ccc(C)c(N)c1,168,OCHEM
Nc1ccccc1N1CCCC1=O,100,OCHEM
CC(=O)Nc1cccc(C(=O)O)n1,227,OCHEM
Cc1nc(Cc2ccccc2)sc1C(=O)O,237,OCHEM
O=C(O)Cc1ccc2c(c1)OCCO2,55,OCHEM
FC(F)(F)C(F)(C(F)(F)F)C(F)(F)C(F)(F)C(F)(F)C(F)(F)C(F)(F)C(F)(F)C(F)(F)C(F)(F)CC1CO1 (stereo not drawn),44.5,ChemicalBook
CC(C)c1nnc(N)o1,185,OCHEM
O=Cc1ccc(-c2ccc([N+](=O)[O-])cc2Br)o1,134,OCHEM
Cc1ccc2c(CCl)cc(=O)oc2c1C,175,OCHEM
O=C(O)CN1C(=O)CCC1=O,92,OCHEM
CN1C(=O)CC(C(=O)O)c2ccccc21 (stereo not drawn),163,OCHEM
COc1ccc(C(=O)Nc2ccccc2CCC2CCCCN2C)cc1.Cl (stereo not drawn),132,OCHEM
NC(=O)NN=Cc1ccccc1O,233,OCHEM
Nc1ccc2oc(=O)[nH]c2c1,205,OCHEM
CC(C)COC(=O)CC(C(=O)OCC(C)C)S(=O)(=O)[O-].[Na+] (stereo not drawn),200,eChemPortal
CCCCc1nc(Cl)c(CO)n1Cc1ccc(-c2ccccc2-c2nnn(C(c3ccccc3)(c3ccccc3)c3ccccc3)n2)cc1,158.5,eChemPortal
O=C(O)c1ccc(NS(=O)(=O)c2ccccc2)cc1,210,OCHEM
CCCCOc1ccc(B(O)O)c(F)c1F,128.5,eChemPortal
CCCCCCCCC(=O)OCC(COC(=O)CCCCCCCC)(COC(=O)CCCCCCCC)COC(=O)CCCCCCCC,4,eChemPortal
O=C(O)CCOc1cccc(Br)c1,64.5,OCHEM
CCN(CC)C(=O)c1ccc(N)cc1,119,OCHEM
Cc1oc2c(F)c(F)c(F)c(F)c2c1C(=O)O,207,OCHEM
CC(C)(C)N(NC(=O)c1ccccc1)C(=O)c1ccccc1Cl,162,OCHEM
Nc1nn2cc(-c3ccccc3)nc2s1,184,OCHEM
CCCc1nc(C)c2c(=O)nc(-c3ccccc3OCC)[nH]n12,144.1,eChemPortal
CCCCCCCCCCCC(=O)OC(C)CS(=O)(=O)[O-].[Na+] (stereo not drawn),154.7,eChemPortal
O=C(O)CCNC(=O)c1ccco1,137,OCHEM
Cc1cc(/N=N/c2ccc(/C=C/c3ccc(/N=N/c4c(C)cc(O)cc4C(=O)[O-])cc3S(=O)(=O)[O-])c(S(=O)(=O)[O-])c2)cc(C(=O)[O-])c1O.[Li+].[Li+].[Li+].[Li+],147.3,eChemPortal
O=C1NC(=O)C(Cc2ccccc2)(Cc2ccccc2)N1,319,OCHEM
CCCCCC=CCC(CC(=O)O)C(=O)O (stereo not drawn),3,eChemPortal
CC(=O)OCC(=O)[C@]1(O)[C@@H](O)C[C@@H]2[C@H]3CCC4=CC(=O)C=C[C@@]4(C)[C@@H]3[C@H](OC(C)=O)C[C@]21C,232.9,eChemPortal
C=C(C)c1cccc(C(=C)C)c1,-42,eChemPortal
Cc1cccc(Oc2ccc(Cl)cc2N)c1,95,OCHEM
CC(C)CC(C(=O)O)N1C(=O)C2CC=CCC2C1=O (stereo not drawn),136,OCHEM

Again, the 4 entries with the lowest melting point:

{"smiles": "CCCCOC(=O)c1ccc(C(=O)OCCCC)c(C(=O)OCCCC)c1", "melting point (°C)": "-54", "via": "eChemPortal"}
{"smiles": "C=C(C)c1cccc(C(=C)C)c1", "melting point (°C)": "-42", "via": "eChemPortal"}
{"smiles": "CC1CCS(=O)(=O)C1", "stereo": "stereo not drawn", "melting point (°C)": "-1.55", "via": "OCHEM, eChemPortal"}
{"smiles": "CCCCCC=CCC(CC(=O)O)C(=O)O", "stereo": "stereo not drawn", "melting point (°C)": "3", "via": "eChemPortal"}

From the experimental data distributed with OPERA 2.9.